Results from BindingDB's records for patent US8470837 (Takeda Pharmaceutical, 2013).

The chains behind the UniProt entries cited, without tags or fusion partners. A line that says so, or that is headed by a name, gives the form on record, which may keep a tag or linker.
UniProt Q02750, as listed by the source S218E/S222D: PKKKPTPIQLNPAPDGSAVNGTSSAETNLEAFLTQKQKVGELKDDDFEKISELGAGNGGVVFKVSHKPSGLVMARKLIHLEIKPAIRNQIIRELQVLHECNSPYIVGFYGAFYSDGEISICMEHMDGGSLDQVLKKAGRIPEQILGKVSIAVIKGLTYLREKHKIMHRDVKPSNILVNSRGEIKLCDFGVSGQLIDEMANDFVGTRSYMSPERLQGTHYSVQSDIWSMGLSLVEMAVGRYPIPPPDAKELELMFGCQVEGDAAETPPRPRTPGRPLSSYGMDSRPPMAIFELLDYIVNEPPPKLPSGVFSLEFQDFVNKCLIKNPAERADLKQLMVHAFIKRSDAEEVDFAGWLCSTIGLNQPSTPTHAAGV

molecular target: T1, Dual specificity mitogen-activated protein kinase kinase 1 [2-31,52-393,S218E,S222D] (Homo sapiens, UniProt Q02750, S218E/S222D); experiment: Enzyme Assay; conditions: pH 7.3; 25 °C
T1 construct: 2-31,52-393

| IC50 | SMILES |
| --- | --- |
| in the range around 0.01 µM | Cn1c(=O)c(F)c(Nc2ccc(Br)cc2F)c2c(=O)n(C[C@H](O)CO)cnc21 [US8470837, 41] |
| in the range around 0.01 µM | Cn1c(=O)cc(Nc2ccc(I)cc2F)c2c(=O)n(CCO)cnc21 [US8470837, 2] |
| in the range around 0.01 µM | Cc1c(Nc2ccc(I)cc2F)c2c(=O)n(C)cnc2n(C)c1=O [US8470837, 4] |

| SMILES | IC50 |
| --- | --- |
| Cn1c(=O)cc(Nc2ccc(I)cc2F)c2c(=O)n(C(CO)CO)cnc21 [US8470837, 24] | in the range around 0.01 µM |
